# Data taken from PubChem BioAssay AID540303 (National Center for Advancing Translational Sciences (NCATS), 2011).
# Only a part is listed here, and it is no random draw. Records with an inconclusive call do not appear. Activity calls are given as the source filed them. The call rests on the fitted dose curve; in most records, active means well fitted inhibition curve with a large enough effect; inconclusive means small, poorly fitted or top-dose-only effect; inactive means no such curve, though single readings can be large or run the other way; tested in mouse RAW 264.7 cells.
# Experiment: qHTS for Inhibitors of Cell Surface uPA Generation; further: nearly all actives have a fitted effect of over 55% in size
# Details: cell surface uPA generation assay; at 38.3 µM (top of the series)
# Method in brief: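 Validation set in qHTS format. RAW 264.7 cells were pre-plated overnight and then exposed to compounds (up to 38.3 uM final) for 24 h at 37 C in 5% CO2, followed by a luminescent ATP-Lite measurement.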
# On the % scale 0 is the no-effect control and ±100 the full control effect.
row,Structure (SMILES),"activity change, negative = inhibition"
1,Fc1ccccc1NC1CCN(Cc2ccccc2)CC1,inactive: -3.11%
2,Cc1ccc(C(=O)NCC2(N3CCCCC3)CCCCC2)o1,inactive: -2.12%
3,CCC(CO)(C(=O)OC1CN2CCC1CC2)c1ccccc1 (stereo unspecified),inactive: 11.2%
4,COc1cccc(C(=O)N(c2cc(C)cc(C)c2)C2CCN(C(=O)OC(C)(C)C)CC2)c1,inactive: 5.95%
5,COc1cc(OC)cc(C(=O)NCC2(N3CCOCC3)CCCCC2)c1,inactive: -4.67%
6,CN1CCC(Nc2ccc(Cl)cc2)CC1,inactive: 3.32%
7,CN1CCC(Nc2ccc(F)c(Cl)c2)CC1,inactive: -6.41%
8,CCOc1ncccc1C(=O)NCC1(N2CCOCC2)CCCCC1,inactive: -2%
9,CCCOc1ccc(C(=O)NCC2(N(C)C)CCCCC2)cc1,inactive: 5.55%
10,O=C(O)C1(Nc2ccccc2)CCN(Cc2ccccc2)CC1,inactive: -0.509%
11,CC(C)(C)OC(=O)N1CCC(Nc2ccccc2)CC1,inactive: 4.04%
12,N/C(=N\O)c1c(N)no[n+]1[O-],inactive: 1.66%
13,CCOC(=O)N1CCC(Nc2ccc(C)cc2)CC1,inactive: 4.36%
14,O=C(O)c1cccc(Nc2c([N+](=O)[O-])cc([N+](=O)[O-])cc2[N+](=O)[O-])c1,inactive: -0.24%
15,O=C(OC1CN2CCC1CC2)C1c2ccccc2C=Cc2ccccc21 (stereo unspecified),inactive: -2.81%
16,CCc1cc(C(=O)NCC2(N3CCCCC3)CCCCC2)sc1C,inactive: -3.8%
17,O=C(NCC1(N2CCOCC2)CCCCC1)c1cc(Br)ccc1Cl,inactive: -4.63%
18,COc1cc(C(=O)NCC2(N3CCOCC3)CCCCC2)cc(OC)c1C,inactive: -9.03%
19,COc1ccc(C(=O)NCC2(N3CCOCC3)CCCCC2)cc1OC,inactive: -8.23%
20,Cc1cc(N(CCCl)CCCl)ccc1C=O,inactive: -8.26%
21,CCCN1CCC(Nc2cc(OC)cc(OC)c2)CC1,inactive: 0.127%
22,c1ccc(CN2CCC(Nc3ccccc3)CC2)cc1,inactive: -0.098%
23,CN(C)C1(CNC(=O)c2cccc(C#N)c2)CCCCC1,inactive: -6.07%
24,CC(C)(C)OC(=O)N1CCC(N(C(=O)c2ccccc2)c2ccc(Cl)cc2)CC1,inactive: 1.97%
25,N#Cc1ccc(C(=O)NCC2(N3CCCCC3)CCCCC2)cc1,inactive: 2.57%
26,CCOC(=O)C(CC)C1=NC(C)(C)Cc2ccccc21.O=[N+]([O-])c1cc([N+](=O)[O-])c(O)c([N+](=O)[O-])c1 (stereo unspecified),inactive: 0.923%
